Tested on: IFN-α2b
Method: Enzyme-linked immunosorbent assays (ELISAs) were used to measure IFN-α2b levels (PBL Biomedical Labs; Piscataway, N.J.), as well as serum mesothelin-related protein (SMRP) levels (Fujirebio, Inc., Malvern, Pa.). Neutralizing adenovirus antibody titers (Nabs) were assessed as previously described (5). To detect induced humoral responses against tumor antigens, we performed immunoblotting against purified mesothelin and extracts from allogeneic mesothelioma cell lines using pre- and post-treatment serum as previously described (4-6). See Supplemental Methods for details.

[1] = Day 2 after vector infusion, patients with detectable levels (n=21)

nadofaragene firadenovec [Ad.IFN]
patients with detectable levels of serum IFN (Day 2 after vector infusion): 21 n | detectable levels of serum IFN [1]: 15 to 1608 pg/mL | serum IFN, median value [1]: 470 pg/mL | pleural levels of IFNα (after initial dosing, compared with serum): much higher than seen in the serum

From patent US20210106674A1, “Gene Therapy For Mesothelioma” (The Trustees of the University of Pennsylvania, priority 2019, published 2021)
